Molecular target: CSF1R (Homo sapiens, UniProt P07333)
Assay: biochemical
Conditions: read-out: Percent control

By UniProt entry, the sequences of proteins in these tests, tags left out. Residues count along the entry.
UniProt P07333, 20-972: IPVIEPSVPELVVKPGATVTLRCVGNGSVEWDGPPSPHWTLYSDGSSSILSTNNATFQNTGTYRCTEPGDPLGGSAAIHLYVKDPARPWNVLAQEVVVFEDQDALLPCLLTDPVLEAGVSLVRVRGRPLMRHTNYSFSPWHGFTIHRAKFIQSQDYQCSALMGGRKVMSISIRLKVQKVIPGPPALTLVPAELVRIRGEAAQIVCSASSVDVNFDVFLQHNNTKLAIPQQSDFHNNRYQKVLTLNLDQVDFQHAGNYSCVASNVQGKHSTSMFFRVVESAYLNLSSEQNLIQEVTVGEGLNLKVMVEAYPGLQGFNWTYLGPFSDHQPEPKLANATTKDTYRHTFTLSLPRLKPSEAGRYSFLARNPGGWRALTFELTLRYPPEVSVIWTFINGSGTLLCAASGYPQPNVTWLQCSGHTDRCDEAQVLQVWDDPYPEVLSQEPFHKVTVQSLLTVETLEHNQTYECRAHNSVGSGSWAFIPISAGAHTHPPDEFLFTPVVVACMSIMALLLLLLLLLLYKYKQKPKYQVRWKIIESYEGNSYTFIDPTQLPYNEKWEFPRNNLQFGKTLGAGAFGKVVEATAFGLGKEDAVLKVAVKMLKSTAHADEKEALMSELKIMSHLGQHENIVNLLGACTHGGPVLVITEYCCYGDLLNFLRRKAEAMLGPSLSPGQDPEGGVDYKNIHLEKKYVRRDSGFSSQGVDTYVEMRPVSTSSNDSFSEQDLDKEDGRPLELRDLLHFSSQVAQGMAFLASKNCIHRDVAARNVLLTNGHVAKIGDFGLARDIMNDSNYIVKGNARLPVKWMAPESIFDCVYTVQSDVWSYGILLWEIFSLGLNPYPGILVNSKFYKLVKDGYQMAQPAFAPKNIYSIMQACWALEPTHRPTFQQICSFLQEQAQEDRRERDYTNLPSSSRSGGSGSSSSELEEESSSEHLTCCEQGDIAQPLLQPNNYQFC

For `C#Cc1cccc(Nc2ncnc3cc(OCCOC)c(OCCOC)cc23)c1` [Erlotinib], the remaining activity at 10 µM was 100%.

— article PMC4858680, “A platinum-based hybrid drug design approach to circumvent acquired resistance to molecular targeted tyrosine kinase inhibitors” (Scientific Reports, 2016)
